System: trehalase (Sus scrofa)
Assay: Inhibitory activity against trehalase from porcine kidney at 1000 uM

inhibition: < 50%
SMILES: CCCC[C@@H]1N[C@@H](CO)[C@@H](O)[C@H](O)[C@@H]1O

— ChEMBL document CHEMBL1137067, “Alpha-1-C-alkyl-1-deoxynojirimycin derivatives as potent and selective inhibitors of intestinal isomaltase: remarkable effect of the alkyl chain length on glycosidase inhibitory profile” (Bioorg Med Chem Lett, 2004)
